Reference: patent US20170037088A1

Molecular target: GLP-1 receptor (UniProt P43220)
Assay: cell-based or functional assay

| Substance | EC50, real-time calcium mobilization (FLIPR) [nM] | EC50, real-time calcium mobilization (FLIPR); exendin-4 from Anaspec [nM] | EC50, real-time calcium mobilization (FLIPR); exendin-4 from Tocris [nM] |
| --- | --- | --- | --- |
| exendin-4-Y576 | 0.098 | – | – |
| native exendin-4 (peptide) | – | 0.075 | 0.11 |
